Only a part of the results on these compounds is given; other tests are left out.
Legend:
[1] = doses exceeding the recommended therapeutic dose of glycine 20-fold; cited from earlier work
[2] = tested on: Balb/C mice; assay: olfactory habituation/dishabituation test
Procedure: Autism impairs the ability to adequately react to social and nonsocial olfactory stimuli. Experimental models of said disorders take into consideration the established fact that all interactions between mice, first and foremost, occur via their olfactory signals. Thus, the olfactory habituation/dishabituation in the experiment is examined by repeatedly exposing the mice to nonsocial and social odors in the habituation/dishabituation test.
The experiment was conducted on male Balb/C mice, 5-7-weeks old, weighing 13-15 g. C57Bl/6 mice of the same gender as the tested animals were used as social stimuli. Outbred male mice, 2-3 month old, weighing 24-30 g were used as an additional control.
The substances were administered to the mice once, intraperitoneally, at 0.1 ml per 10 g body weight, 40 min. prior to the experiment.
The olfactory habituation/dishabituation test was used to determine the animals' ability to respond to social and nonsocial olfactory stimuli. The test was conducted according to method proposed in 2010.
Prior to testing, the mice were placed separately into a cage with clean wood shavings for 30 min. A 15-cm long cotton swab was moistened with water and extended through the cage cover to the height of 5 cm above the wood shavings on the bottom of the cage. Each odor was introduced three times:
3 introductions—nonsocial stimulus: diluted flower smell (lemon extract diluted in a 1:100 ratio (water);
3 introductions—social stimulus (odor from an “unfamiliar” murine cage with soiled wood shavings).
For the social stimulus, a cotton swab that had been moistened with water was used to swab the bottom of “another” soiled murine cage, zigzagging through the cage to cover every corner and the center of the cage. The “other” cage should have housed at least 3 C57Bl/6 mice of the same gender as the tested mice. The wood shavings could not be replaced for at least 3 days.
The observation was conducted for a period of 2 min. The following parameters were recorded:
number of head (nose) lifts and turns toward the swab with an odor located no farther than 2 cm away;
number of approaches to the swab;
number of sniffs of the swab;
number of climbs onto the swab;
number of chewings of the swab.
After 2 min., the cotton swab was replaced with another, which was also introduced for 2 min.

[3] = tested on: Balb/C mice; assay: learning and replicating the spatial skill after spatial reversal (relearning) in the Morris water maze; details: for Replication: Time in the platform quadrant / Training: Number of effective attempts, 1 day / Training: Number of effective attempts, 2 day / Training: Time of searching for the platform, 1 day / Training: Time of searching for the platform, 2 day: after spatial reversal, over 6 days
Procedure: (§1) A method developed in 2007 and described in [7] was used to evaluate the effect of […] on the symptoms of autism spectrum disorders. The effect of the tested compounds on the spatial learning process and the ability to make a new spatial move during retraining in a water maze were examined.
(§2) The test was conducted in the Morris water maze. The mice were first taught the skill of locating a platform in a water maze and replicating this spatial skill. The animals were later confronted with a new location of the platform and thus, spatial “reversal” was created. During relearning (relocation of the platform in the water maze) the animals had to make a new decision and make a correct spatial move.
The day after replicating the spatial skill, the platform is moved to the area of the pool diagonally opposite its previous location. The platform has to be immersed in the water at the same 0.5 cm depth below the water level as in the previous days of training. The training (2 days) and replication procedures are repeated according to the scheme described earlier.

[4] = tested on: Balb/C mice; assay: learning and replicating the spatial skill in the Morris water maze; details: for Replication: Time in the platform quadrant / Training: Number of effective attempts, 1 day / Training: Number of effective attempts, 2 day / Training: Time of searching for the platform, 1 day / Training: Time of searching for the platform, 2 day: over 6 days
Procedure: The experiment was conducted on male Balb/C mice, 5-7-weeks old, weighing 13-15 g. The source of mice and holding conditions were identical to those in Example 1.
In Example 2, the tested substances were used the same way as in Example 1.
The substances were administered to the mice at 0.1 ml per 10 kg of body weight over 6 days. The control Balb/C animals and outbred mice were intraperitoneally administered physiological solution at 0.1 ml per 10 kg of body weight 40 min. prior to the experiment.
as §1, §2
The Morris maze is a large circular pool, 122 cm in diameter, 25 cm deep, filled with water at 25-28° C. A round platform 12 cm in diameter was placed into the pool. The center of the platform was positioned 30 cm away from the edge of the pool.
A platform is located 0.5 cm above the water. A mouse is placed on the platform for 20 sec. The mouse is then placed in the water at the opposite end of the pool and allowed 60 sec. to find the platform, climb it, and stay there for 20 sec. The process is repeated by placing the mouse in the water in the location of the pool different from the location of the first attempt. Each animal is allowed 4 attempts to find the platform.
If the animal is unable to find the platform all by itself in 60 sec., the researcher helps it to find its way to the platform and climb it.
During the next 2 days, the platform is placed 0.5 cm below the water level. The animals are allowed 4 attempts per day to find the platform in 60 sec. The time gap between the attempts is 20 sec., wherein they stay on the platform. Every day, before their first attempt, the animals are placed on the platform for 20 sec. The time between the moment the animal is placed in the water and the moment the animal climbs on the platform is recorded, as well as the number of effective attempts to find the platform. The animals are placed in the water in three different locations in the part of the pool opposite the platform.
24 hrs. post the second day of training, the replication of the spatial skill is evaluated: the platform is removed and the animals are placed in the pool for 60 sec. once; the time length of the animal's stay in the quadrant wherein the platform had been located during the learning stage is recorded. Said time is an indicator of learning efficiency and replication of the spatial skill.

[5] = nanolycine at both doses (1- and 10-mg/kg)
[6] = 10-mg/kg, second day of training

glycine immobilized on detonation nanodiamond particles 2-10 nm in size
side or toxic effects [1]: did not cause any side or toxic effects | ability to recognize the "C57Bl/6 mice odor" stimulus at the first exposure, higher than Balb/C mice ([2]; 1-mg/kg, p<0.05): 2.1 times | response to the third "lemon" odor exposure lower than response to the second exposure ([2]; 10-mg/kg): 68% | reduced murine response after repeated exposure vs first exposure ([2]; "C57Bl/6 mice odor" stimulus, 1-mg/kg): 61.2% | reduced murine response after repeated exposure vs first exposure ([2]; "C57Bl/6 mice" odor, 10-mg/kg): 65.4% | reduced murine response after repeated exposure vs first exposure ([2]; "water" stimulus, 1-mg/kg): 32.5% | reduced murine response after repeated (second) exposure vs first exposure ([2]; "water" stimulus, 10-mg/kg): 43.4% | Response to the olfactory stimulus of Balb/C mice ([2]; C57B1/6 mice odor, exposure 1, 1-mg/kg i.p. once): 14.7 ± 1.6$ units | Response to the olfactory stimulus of Balb/C mice ([2]; C57B1/6 mice odor, exposure 1, 10-mg/kg i.p. once): 7.8 ± 0.8 units | Response to the olfactory stimulus of Balb/C mice ([2]; C57B1/6 mice odor, exposure 2, 1-mg/kg i.p. once): 5.7 ± 1.2 units | Response to the olfactory stimulus of Balb/C mice ([2]; C57B1/6 mice odor, exposure 2, 10-mg/kg i.p. once): 2.7 ± 0.7 units | Response to the olfactory stimulus of Balb/C mice ([2]; C57B1/6 mice odor, exposure 3, 1-mg/kg i.p. once): 3.3 ± 0.5 units | Response to the olfactory stimulus of Balb/C mice ([2]; C57B1/6 mice odor, exposure 3, 10-mg/kg i.p. once): 1.5 ± 0.3 units | Response to the olfactory stimulus of Balb/C mice ([2]; Lemon, exposure 1, 1-mg/kg i.p. once): 2.0 ± 0.4 units | Response to the olfactory stimulus of Balb/C mice ([2]; Lemon, exposure 1, 10-mg/kg i.p. once): 2.5 ± 0.6 units | Response to the olfactory stimulus of Balb/C mice ([2]; Lemon, exposure 2, 1-mg/kg i.p. once): 1.3 ± 0.4 units | Response to the olfactory stimulus of Balb/C mice ([2]; Lemon, exposure 2, 10-mg/kg i.p. once): 2.5 ± 0.7 units | Response to the olfactory stimulus of Balb/C mice ([2]; Lemon, exposure 3, 1-mg/kg i.p. once): 1.3 ± 0.4 units | Response to the olfactory stimulus of Balb/C mice ([2]; Lemon, exposure 3, 10-mg/kg i.p. once): 0.8 ± 0.2 units | Response to the olfactory stimulus of Balb/C mice ([2]; Water, exposure 1, 1-mg/kg i.p. once): 7.7 ± 0.8 units | Response to the olfactory stimulus of Balb/C mice ([2]; Water, exposure 1, 10-mg/kg i.p. once): 8.3 ± 0.8 units | Response to the olfactory stimulus of Balb/C mice ([2]; Water, exposure 2, 1-mg/kg i.p. once): 5.2 ± 0.9 units | Response to the olfactory stimulus of Balb/C mice ([2]; Water, exposure 2, 10-mg/kg i.p. once): 4.7 ± 0.8 units | Response to the olfactory stimulus of Balb/C mice ([2]; Water, exposure 3, 1-mg/kg i.p. once): 3.3 ± 0.4 units | Response to the olfactory stimulus of Balb/C mice ([2]; Water, exposure 3, 10-mg/kg i.p. once): 3.8 ± 0.6 units | habituation to olfactory stimuli as compared to the control Balb/C animals ([2]; nanolycine 1- and 10-mg/kg, nanodiamond, glycine 10-mg/kg, Triftazin 0.5 mg/kg): faster | effectiveness compared with Triftazin (0.5 mg/kg) [2, 5]: as effective as | effectiveness compared with glycine (10-mg/kg) [2, 5]: more effective than | increase of the time the animals spent in the "correct" quadrant after spatial reversal ([3]; 1-mg/kg): 3.4 times | number of effective attempts to find the platform as compared to the control animals, first day of retraining ([3]; 1-mg/kg): 2.4 times | effect of the preparation during retraining (second vs first day) ([3]; 10-mg/kg): positive effect | impact on the replication of the newly acquired skill ([3]; Triftazin 0.5 mg/kg, glycine 10-mg/kg, nanolycine 10-mg/kg): did not make any impact | Replication: Time in the platform quadrant ([3]; 1-mg/kg): 11.2 ± 4.5 s | Training: Number of effective attempts, 1 day ([3]; 1-mg/kg): 1.2 ± 0.4 units | Training: Number of effective attempts, 2 day ([3]; 1-mg/kg): 2.2 ± 0.6 units | Training: Time of searching for the platform, 1 day ([3]; 1-mg/kg): 49.4 ± 3.7 s | Training: Time of searching for the platform, 2 day ([3]; 1-mg/kg): 48.4 ± 3.9 s | Replication: Time in the platform quadrant ([3]; 10-mg/kg): 14.1 ± 4.6 s | Training: Number of effective attempts, 1 day ([3]; 10-mg/kg): 1.0 ± 0.5 units | Training: Number of effective attempts, 2 day ([3]; 10-mg/kg): 1.8 ± 0.5 units | Training: Time of searching for the platform, 1 day ([3]; 10-mg/kg): 54.4 ± 3.1 s | Training: Time of searching for the platform, 2 day ([3]; 10-mg/kg): 45.9 ± 4.5 s | difference from the control group in both recorded parameters on the first and second day of retraining ([3]; nanolycine 1-mg/kg, nanodiamond, glycine, Triftazin): did not show any statistically significant difference | Replication: Time in the platform quadrant ([4]; 1-mg/kg): 30.5 ± 4.8 s | Training: Number of effective attempts, 1 day ([4]; 1-mg/kg): 2.2 ± 0.6 units | Training: Number of effective attempts, 2 day ([4]; 1-mg/kg): 2.7 ± 0.7 units | Training: Time of searching for the platform, 1 day ([4]; 1-mg/kg): 42.0 ± 6.5 s | Training: Time of searching for the platform, 2 day ([4]; 1-mg/kg): 43.2 ± 4.4 s | increase of the number of effective attempts to find the platform vs control group of linear mice ([4]; 1-mg/kg, second day of training): 4.4 times | reduction in the time that took to find the platform vs control ([4]; 1-mg/kg, trend level p<0.1): 14% | Replication: Time in the platform quadrant ([4]; 10-mg/kg): 12.5 ± 3.4 s | Training: Number of effective attempts, 1 day ([4]; 10-mg/kg): 1.3 ± 0.3 units | Training: Number of effective attempts, 2 day ([4]; 10-mg/kg): 2.3 ± 0.5 units | Training: Time of searching for the platform, 1 day ([4]; 10-mg/kg): 53.5 ± 2.5 s | Training: Time of searching for the platform, 2 day ([4]; 10-mg/kg): 42.3 ± 5.7 s | larger number of effective attempts as compared to the control group [4, 6]: 3.6 times | less time on the search for the platform as compared to the control group [4, 6]: 18.5% | difference from the linear (control Balb/C) mice on the first day of training ([4]; nanolycine 1- and 10-mg/kg, nanodiamond, glycine, Triftazin): didn't show any statistically significant difference

— patent publication US20170095435A1, “AGENT FOR THE TREATMENT AND PREVENTION OF AUTISM SPECTRUM DISORDERS” (published 2017)
